Protein sequences, listed by entry. Tags and fused reporters are not part of them.
UniProt P28482, whole entry: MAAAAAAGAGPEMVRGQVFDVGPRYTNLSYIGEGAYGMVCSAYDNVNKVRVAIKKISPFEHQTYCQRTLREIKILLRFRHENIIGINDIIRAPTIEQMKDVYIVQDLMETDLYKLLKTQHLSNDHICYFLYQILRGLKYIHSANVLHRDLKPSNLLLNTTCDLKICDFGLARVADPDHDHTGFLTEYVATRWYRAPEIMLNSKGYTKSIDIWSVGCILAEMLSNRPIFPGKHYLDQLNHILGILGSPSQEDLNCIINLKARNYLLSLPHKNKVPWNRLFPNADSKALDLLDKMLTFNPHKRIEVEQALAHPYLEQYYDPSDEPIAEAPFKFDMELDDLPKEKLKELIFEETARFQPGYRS

According to patent US9242996B2 (Novartis AG, priority 2013, dated 2016):

What was measured:
activated ERK2 [1] = molecular target: T1, activated ERK2 (Homo sapiens (Human), UniProt P28482); test: Activated ERK2 kinase assay, ERK2 New conditions (AlphaScreen, ERKtide phosphorylation); format: biochemical; settings: 0.25 nM ERK2, 200 nM ERKtide peptide, 35 μM ATP, 30 min preincubation
Procedure: The following assay conditions (ERK2 New) were used for some compounds in the following Table, and provide substantially similarIC50s to the assay described above, for IC50 about 0.1 μM or above. […]
Compound potency against activated ERK2 is determined using a kinase assay that measures ERK2-catalyzed phosphorylation of biotinylated ERKtide peptide substrate ([Biotin]-AH[…]-[NH2], the peptide sequence derived from EGF receptor: SEQ ID NO:1). The assay is carried out in 50 mM HEPES [pH 7.5], 5 mM MgCl2, 1 mM DTT, 0.01% Tween-20, 0.05% BSA using 0.25 nM ERK2, 200 nM ERKtide peptide and 35 μM ATP (all concentrations are final in the reaction) in a total volume of 10.25 μL. […] Compound dilution series are prepared in 100% DMSO. ERK2 is preincubated with compounds for 30 minutes at ambient temperature. Reaction is initiated by addition of a substrate cocktail of ERKtide peptide and ATP and is allowed to proceed for 2-3 hours at ambient temperature. Reaction is terminated by addition of 10 μL of a 2× stop buffer consisting of 100 mM Tris-Cl [pH 7.5], 25 mM EDTA, 0.01% Tween 20, 10 μg/mL of AlphaScreen Protein A Acceptor Beads, 10 μg/mL of Streptavidin Donor Beads (PerkinElmer, Waltham, Mass.), and 1.4 μg/mL phospho-EGF Receptor (Thr669) antibody (Cat #3056, Cell Signaling Technology, Danvers, Mass.). Terminated reactions are read, after overnight incubation in the dark, on an EnVision Multilabel Plate Reader (PerkinElmer, Waltham, Mass.), with excitation and emission wavelengths set to 680 nm and 570 nm, respectively. IC50 values are determined using a four-parameter fit.

activated ERK2 [2] = molecular target: T1, activated ERK2; test: Activated ERK2 (20 pM) Kinase Assay (AlphaScreen, ERKtide phosphorylation); format: biochemical; settings: 0.02 nM ERK2, 400 nM ERKtide peptide, 35 μM ATP, 30 min preincubation
Procedure: Activated ERK2 (20 pM) Kinase Assay:
Compound potency against activated ERK2 was determined using a kinase assay that measures ERK2-catalyzed phosphorylation of biotinylated ERKtide peptide substrate ([Biotin]-AH[…]-[NH2], the peptide sequence derived from EGF receptor: SEQ ID NO:1). The assay was carried out in 20 mM HEPES [pH 7.5], 5 mM MgCl2, 1 mM DTT, 0.01% Tween-20, 0.05% BSA using 0.02 nM ERK2, 400 nM ERKtide peptide and 35 μM ATP (all concentrations are final in the reaction) in a total volume of 10.25 μL. […] Compound dilution series were prepared in 100% DMSO. ERK2 was preincubated with compounds for 30 minutes at ambient temperature. Reaction was initiated by addition of a substrate cocktail of ERKtide peptide and ATP and was allowed to proceed for 4 hours at ambient temperature. Reaction was terminated by addition of 10 μL of a 2× stop buffer consisting of 100 mM Tris-Cl [pH 7.5], 25 mM EDTA, 0.01% Tween 20, 20 μg/mL of AlphaScreen Protein A Acceptor Beads, 20 μg/mL of Streptavidin Donor Beads (PerkinElmer, Waltham, Mass.), and 1:1000 dilution phospho-EGF Receptor (Thr669) antibody (Cat #8808, Cell Signaling Technology, Danvers, Mass.). Terminated reactions were read, after overnight incubation in the dark, on an EnVision Multilabel Plate Reader (PerkinElmer, Waltham, Mass.), with excitation and emission wavelengths set to 680 nm and 570 nm, respectively. IC50 values were determined using a four-parameter fit.

Row | SMILES | IC50 (activated ERK2 [1]) [nM] | IC50 (activated ERK2 [2]) [nM]
1 | Nc1ncc(C2CCCCC2)nc1-c1ccc(C(=O)N[C@H](CO)c2cccc(Cl)c2)c(F)c1 [Example 422, (S)-4-(3-amino-6-cyclo-hexylpyrazin-2-yl)-N-(1-(3-chlorophenyl)-2-hydroxyethyl)-2-fluorobenzamide] | 0.187 | 0.0651
2 | Cn1cc(-c2cnc(N)c(-c3ccc(C(=O)N[C@@H]4C[C@H]4c4ccccc4)c(F)c3)c2)cn1 [Example 131, 4-(2-amino-5-(1-methyl-1H-pyrazol-4-yl)pyridin-3-yl)-2-fluoro-N-((1R,2S)-2-phenylcyclopropyl)benzamide] | 99.2 | 
3 | Cn1nncc1-c1cnc(N)c(-c2ccc(C(=O)N[C@H](CO)c3cc(F)cc(Cl)c3)c(F)c2)c1 [Example 302, (S)-4-(2-amino-5-(1-methyl-1H-1,2,3-triazol-5-yl)pyridin-3-yl)-N-(1-(3-chloro-5-fluorophenyl)-2-hydroxyethyl)-2-fluorobenzamide] | 0.169 | 0.0547
4 | C[C@@H](O)Cc1cnc(N)c(-c2ccc(C(=O)NCc3ccccc3)c(F)c2)n1 (single isomer, unassigned) [Example 23] | 393 | 
5 | Nc1ncc([C@H]2CC[C@H](NC(=O)CO)CC2)nc1-c1ccc(C(=O)N[C@H](CO)c2cccc(Cl)c2)c(F)c1 [Example 196, 4-(3-amino-6-((1r,4S)-4-(2-hydroxyacetamido)cyclohexyl)pyrazin-2-yl)-N—((S)-1-(3-chlorophenyl)-2-hydroxyethyl)-2-fluorobenzamide] | 0.929 | 0.363
6 | C[C@H](O)Cc1cnc(N)c(-c2ccc(C(=O)NCc3ccccc3)c(F)c2)n1 (single isomer, unassigned) [Example 24] | 453 | 
7 | CC(=O)N[C@H]1CC[C@H](c2cnc(N)c(-c3ccc(C(=O)N[C@H](CO)c4cccc(Cl)c4)c(F)c3)n2)CC1 [Example 193, 4-(6-((1r,4S)-4-acetamidocyclohexyl)-3-aminopyrazin-2-yl)-N—((S)-1-(3-chlorophenyl)-2-hydroxyethyl)-2-fluorobenzamide] | 1.19 | 0.561
8 | Nc1ncc([C@H]2CC[C@H](O)CC2)nc1-c1ccc(C(=O)N[C@H](CO)c2cccc(Cl)c2)c(F)c1 [Example 417, 4-(3-amino-6-((1r,4S)-4-hydroxy-cyclohexyl)pyrazin-2-yl)-N-((S)-1-(3-chlorophenyl)-2-hydroxyethyl)-2-fluorobenzamide] | 0.69 | 0.0928
9 | CS(=O)(=O)c1cc(Cl)cc(CNC(=O)c2ccc(-c3nc(C4CC4)cnc3N)cc2F)c1 [Example 285, 4-(3-amino-6-cyclo-propylpyrazin-2-yl)-N-(3-chloro-5-(methylsulfonyl)benzyl)-2-fluorobenzamide] | 26.6 | 
10 | CS(=O)(=O)N[C@H]1CC[C@H](c2cnc(N)c(-c3ccc(C(=O)N[C@H](CO)c4cccc(Cl)c4)c(F)c3)n2)CC1 [Example 194, 4-(3-amino-6-((1r,4S)-4-(methylsulfonamido)cyclohexyl)pyrazin-2-yl)-N—((S)-1-(3-chlorophenyl)-2-hydroxyethyl)-2-fluorobenzamide] | 0.26 | 
11 | CS(=O)(=O)c1cccc([C@@H](CO)NC(=O)c2ccc(-c3nc(C4CCOCC4)cnc3N)cc2F)c1 [Example 308, (S)-4-(3-amino-6-(tetrahydro-2H-pyran-4-yl)pyrazin-2-yl)-2-fluoro-N-(2-hydroxy-1-(3-(methylsulfonyl)phenyl)ethyl) benzamide] | 0.129 | 0.0345
12 | Nc1ncc([C@@H]2CC[C@H](O)C2)nc1-c1ccc(C(=O)NCc2ccccc2)c(F)c1 (racemic) [Example 102, (+/−)-4-(3-amino-6-((1R,3S)-3-hydroxycyclopentyl)pyrazin-2-yl)-N-benzyl-2-fluorobenzamide] | 91.7 | 
13 | COC(=O)N[C@H]1CC[C@H](c2cnc(N)c(-c3ccc(C(=O)N[C@H](CO)c4cccc(Cl)c4)c(F)c3)n2)CC1 [Example 195, methyl ((1S,4r)-4-(5-amino-6-(4-(((S)-1-(3-chlorophenyl)-2-hydroxyethyl)carbamoyl)-3-fluorophenyl)pyrazin-2-yl)cyclohexyl)carbamate] | 0.282 | 
14 | Cc1ncc(-c2cnc(N)c(-c3ccc(C(=O)N[C@H](CO)c4cccc(Cl)c4)c(F)c3)c2)n1C [Example 162, (S)-4-(2-amino-5-(1,2-dimethyl-1H-imidazol-5-yl)pyridin-3-yl)-N-(1-(3-chlorophenyl)-2-hydroxyethyl)-2-fluorobenzamide] | 0.487 | 
15 | Nc1ncc([C@H]2CC[C@@H](O)CC2)nc1-c1ccc(C(=O)N[C@H](CO)c2cccc(Cl)c2)c(F)c1 [Example 418, 4-(3-amino-6-((1s,4R)-4-hydroxy-cyclohexyl)pyrazin-2-yl)-N-((S)-1-(3-chlorophenyl)-2-hydroxyethyl)-2-fluorobenzamide] | 1.28 | 
16 | Cc1nn(C)cc1-c1cnc(N)c(-c2ccc(C(=O)N[C@H](CN)c3cccc(Cl)c3)c(F)c2)c1 [Example 226, (S)—N-(2-amino-1-(3-chlorophenyl)ethyl)-4-(2-amino-5-(1,3-dimethyl-1H-pyrazol-4-yl)pyridin-3-yl)-2-fluorobenzamide] | 0.0497 | 
17 | CC(C)n1cc(-c2cnc(N)c(-c3ccc(C(=O)N[C@H](CO)c4ccccc4)c(F)c3)n2)cn1 [Example 312, (S)-4-(3-amino-6-(1-isopropyl-1H-pyrazol-4-yl)pyrazin-2-yl)-2-fluoro-N-(2-hydroxy-1-phenylethyl) benzamide] | 3.74 | 
18 | Cc1nn(C)c(C)c1-c1cnc(N)c(-c2ccc(C(=O)N[C@H](CO)c3ccccc3)c(F)c2)n1 [Example 249, (S)-4-(3-amino-6-(1,3,5-trimethyl-1H-pyrazol-4-yl)pyrazin-2-yl)-2-fluoro-N-(2-hydroxy-1-phenylethyl) benzamide] | 3.71 | 
19 | CS(=O)(=O)c1cc(Cl)cc(CNC(=O)c2ccc(-c3nc(C4CCOCC4)cnc3N)cc2F)c1 [Example 311, 4-(3-amino-6-(tetrahydro-2H-pyran-4-yl)pyrazin-2-yl)-N-(3-chloro-5-(methylsulfonyl)benzyl)-2-fluorobenzamide] | 1.19 | 
20 | Nc1ncc([C@@H]2CC[C@@H](O)C2)nc1-c1ccc(C(=O)NCc2ccccc2)c(F)c1 (racemic) [Example 103, (+/−)-4-(3-amino-6-((1R,3R)-3-hydroxycyclopentyl)pyrazin-2-yl)-N-benzyl-2-fluorobenzamide] | 31.6 | 
21 | NC[C@@H](NC(=O)c1ccc(-c2nc([C@H]3CC[C@H](O)[C@H](F)C3)cnc2N)cc1F)c1cc(F)cc(Br)c1 [Example 354, N-((S)-2-amino-1-(3-bromo-5-fluorophenyl)ethyl)-4-(3-amino-6-((1S,3R,4S)-3-fluoro-4-hydroxy-cyclohexyl)pyrazin-2-yl)-2-fluorobenzamide] |  | 0.0194
22 | CS(=O)(=O)N[C@H]1CC[C@@H](c2cnc(N)c(-c3ccc(C(=O)N[C@H](CO)c4cccc(Cl)c4)c(F)c3)n2)CC1 [Example 433, 4-(3-amino-6-((1s,4R)-4-(methyl-sulfonamido)cyclohexyl)pyrazin-2-yl)-N-((S)-1-(3-chlorophenyl)-2-hydroxyethyl)-2-fluorobenzamide] |  | 2.9
23 | Nc1ncc([C@H]2CC[C@H](O)C(F)(F)C2)nc1-c1ccc(C(=O)N[C@H](CO)c2cc(F)cc(I)c2)c(F)c1 [Example 456, 4-(3-amino-6-((1S,4S)-3,3-difluoro-4-hydroxycyclohexyl)pyrazin-2-yl)-2-fluoro-N—((S)-1-(3-fluoro-5-iodophenyl)-2-hydroxyethyl)benzamide] |  | 0.0872
